Experiment: In vivo degradation of CC-DHA shields in a murine model
Settings: mouse

For “chemically crosslinked dihydroxyacetone-based hydrogel [CC-DHA]”, the “degradation rate in vivo versus in vitro” value was “degraded more rapidly in vivo than in vitro”.
